Test [1] has as its target Human recombinant MAO A (Homo sapiens (Human), UniProt P21397). Briefly: MAO A inhibition, peroxidase-coupled assay with kynuramine as substrate. In kind it is biochemical.
Test [2] concerns the target Mouse recombinant LSD2 (Mus musculus (Mouse), UniProt Q8CIG3). Briefly: LSD2 inhibition, peroxidase-coupled assay with histone H3 peptide di-methylated at Lys4. It counts as biochemical.

Chains of the proteins cited; added tags and fusions are not shown. Lines headed by an entry give the natural chain unless they say otherwise; changes in a name come on top.
UniProt P21397, whole entry, looked up: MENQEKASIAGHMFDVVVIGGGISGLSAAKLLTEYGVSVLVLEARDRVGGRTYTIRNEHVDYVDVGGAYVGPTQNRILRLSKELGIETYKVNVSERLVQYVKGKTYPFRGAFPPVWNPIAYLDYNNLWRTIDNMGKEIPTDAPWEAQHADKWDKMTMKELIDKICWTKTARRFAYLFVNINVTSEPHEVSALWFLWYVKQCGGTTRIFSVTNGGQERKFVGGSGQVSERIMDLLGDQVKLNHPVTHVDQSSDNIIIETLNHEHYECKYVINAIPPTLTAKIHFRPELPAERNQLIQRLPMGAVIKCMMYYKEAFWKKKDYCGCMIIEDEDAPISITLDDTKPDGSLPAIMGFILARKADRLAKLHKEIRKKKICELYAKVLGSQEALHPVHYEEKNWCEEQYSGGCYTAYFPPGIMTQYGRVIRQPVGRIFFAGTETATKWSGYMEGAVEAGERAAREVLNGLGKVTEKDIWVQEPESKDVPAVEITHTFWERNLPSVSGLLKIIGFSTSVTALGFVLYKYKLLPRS
UniProt Q8CIG3: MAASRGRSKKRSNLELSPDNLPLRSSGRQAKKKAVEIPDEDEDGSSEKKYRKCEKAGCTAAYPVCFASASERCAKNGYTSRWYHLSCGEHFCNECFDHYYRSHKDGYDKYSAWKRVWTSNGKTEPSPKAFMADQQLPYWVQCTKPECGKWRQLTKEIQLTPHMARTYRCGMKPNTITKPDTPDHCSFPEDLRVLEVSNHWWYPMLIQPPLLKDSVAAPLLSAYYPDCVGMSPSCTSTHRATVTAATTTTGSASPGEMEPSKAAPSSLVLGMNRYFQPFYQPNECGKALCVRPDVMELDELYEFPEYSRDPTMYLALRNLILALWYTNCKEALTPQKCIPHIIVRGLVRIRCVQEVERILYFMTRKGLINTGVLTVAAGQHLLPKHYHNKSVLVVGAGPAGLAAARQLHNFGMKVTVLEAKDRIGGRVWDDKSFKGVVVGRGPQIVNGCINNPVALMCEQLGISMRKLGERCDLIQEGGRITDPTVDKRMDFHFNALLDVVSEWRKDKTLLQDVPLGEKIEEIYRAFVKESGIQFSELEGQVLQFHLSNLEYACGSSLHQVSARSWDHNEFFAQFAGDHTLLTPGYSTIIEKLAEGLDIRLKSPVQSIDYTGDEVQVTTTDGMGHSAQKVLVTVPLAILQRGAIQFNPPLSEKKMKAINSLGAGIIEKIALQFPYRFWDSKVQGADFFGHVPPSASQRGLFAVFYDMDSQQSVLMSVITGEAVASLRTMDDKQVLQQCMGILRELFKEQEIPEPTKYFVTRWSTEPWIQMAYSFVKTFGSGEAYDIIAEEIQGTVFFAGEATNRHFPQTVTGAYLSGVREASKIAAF

1 molecule from US8765820B2, “Tranylcypromine derivatives as inhibitors of histone demethylases LSD1 and/or LSD2” (Universita Degli Studi di Roma “La Sapienza”, priority 2010, dated 2014) can be followed below.

Turning to `Cl.NC1CC1c1ccc(NC(=O)C(Cc2ccccc2)NC(=O)OCc2ccc(Br)cc2)cc1` (stereo not drawn) [Compound 7, trans 4-bromobenzyl 1-(4-(2-aminocyclopropyl)phenylamino)-1-oxo-3-phenylpropan-2-ylcarbamate], in test [1], the “MAO A inhibition” value is listed as “+”. Further, the LSD2 inhibition result in test [2] is “+”.
